Literature values as cited in patent publication US7595398B2, “N-(5-membered aromatic ring)-amido anti-viral compounds” (SmithKline Beecham Corporation, priority 2005, dated 2009).

Conditions: human, in vivo; cited from earlier work

SMILES: NC(=O)c1ncn([C@@H]2O[C@H](CO)[C@@H](O)[C@H]2O)n1 [Ribavirin]
- teratogenicity and embryotoxicity: both teratogenic and embryotoxic
